Measured values from PMC5080452 (Bioorganic & Medicinal Chemistry, 2016).

Settings: pig, PAMPA

Substance	Pe, experimental value
Norfloxazin	0.9 ± 0.1 10^−6 cm s^−1
Ofloxazin	1.0 ± 0.1 10^−6 cm s^−1
